Source: patent publication US20090054489A1

Chains of the proteins cited; added tags and fusions are not shown.
UniProt Q01959, whole entry: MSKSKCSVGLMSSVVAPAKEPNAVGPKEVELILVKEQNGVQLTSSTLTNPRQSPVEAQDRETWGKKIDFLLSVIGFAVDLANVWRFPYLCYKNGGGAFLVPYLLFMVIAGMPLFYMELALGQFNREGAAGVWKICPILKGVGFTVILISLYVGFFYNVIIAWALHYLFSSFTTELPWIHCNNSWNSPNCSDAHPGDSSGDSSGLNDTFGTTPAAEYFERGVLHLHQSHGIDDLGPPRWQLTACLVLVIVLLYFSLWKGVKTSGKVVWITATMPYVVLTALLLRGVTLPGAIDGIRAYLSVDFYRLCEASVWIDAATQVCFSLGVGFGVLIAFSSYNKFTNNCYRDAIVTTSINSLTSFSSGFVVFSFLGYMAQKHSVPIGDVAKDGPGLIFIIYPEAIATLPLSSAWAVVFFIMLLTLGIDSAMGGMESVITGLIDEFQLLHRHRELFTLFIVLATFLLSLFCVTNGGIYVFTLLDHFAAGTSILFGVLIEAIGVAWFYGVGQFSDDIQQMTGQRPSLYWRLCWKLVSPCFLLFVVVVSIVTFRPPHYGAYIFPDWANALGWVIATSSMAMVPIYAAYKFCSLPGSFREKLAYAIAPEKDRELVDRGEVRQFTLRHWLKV

Assays:
DAT (SLC6A3) = DAT (SLC6A3) (Homo sapiens, UniProt Q01959); assay: uptake assay for measuring IC50 of DAT; settings: read-out: IC50 against DAT (SLC6A3); cells expressing DAT, tritiated amine uptake
Method: (§1) In vitro inhibitory profiles of two illustrative DAT-5HT2 antagonists, CNS-30,100 and CNS-31,100, were determined by measuring their respective IC50 using standard assays.
In a typical uptake assay for measuring IC50 of DAT, the assay is performed at room temperature in Krebs-Ringer's-HEPES (KRH) buffer (125 mM NaCl, 4.8 mM KCl, 1.2 mM MgSO4, 1.2 mM KH2PO4, 1.3 mM CaCl2, and 25 mM HEPES, pH 7.4), supplemented with 0.1% D-glucose, 1 mM ascorbic acid, 1 mM tropolone [catechol-O-methyltransferase (EC 2.1.1.6)-inhibitor] and 10 μM pargyline (monoamine oxidase-B inhibitor). Before the assay, cells expressing DAT are washed once with KRH and equilibrated for 5 min. The cells may be assayed in 24-well plates and incubated for 2-5 min with tritiated amines. Nontransported inhibitors were preincubated for 5 min, and substrates were applied together with the tritiated substrate. The uptake assay is terminated with two washes of ice-cold KRH, and the accumulated radioactivity is recovered by lysing the cells in 0.2% SDS and 0.1 N NaOH and counting on a Liquid Scintillation Analyzer 1900 TR (Packard, Meriden, Conn.). Nonspecific uptake can be determined in the presence of 10 μM GBR12909 (for hDAT). […]
Vmax values for amine uptake in stable transfected DAT-cells are determined in parallel assays for at least two amines per experiment and expressed as relative values.

5-HT-2A/2C receptors = assay: IC50 for 5-HT-2A/C receptors, standard uptake assay using labeled 5-HT; settings: read-out: IC50 for 5-HT-2A/2C receptors; [3H]5HT
Method: as §1
Similarly, IC50 for 5-HT-2A/C receptors can be measured using a standard uptake assay using labeled 5-HT. See Rudolph et al., J. Pharmacol. Exp. Ther. 287(1): 389-94, 1998. Briefly, the time course of the 5HT uptake can be determined by incubating each cell/tissue with the receptor at different periods in containers containing 2 ml of RBS without Ca++ at 30° C. in which [^3H]5HT (38 nM) is added. For estimating the kinetic parameters of 5HT uptake, several concentrations of [^3H]5HT may be used, ranging, for example, from 25 to 240 nM, using a 30-min incubation period. Corresponding incubations were conducted in a Na+-free medium to correct for nonspecific uptake. Radioactivity not incorporated by the tissue/cell is washed off by further incubation for 10 min in 100 ml of RBS. The tissue/cell is homogenized in 2 ml of 10% perchloric acid at the end of the incubation. The resulting suspension is centrifuged at 600×g for 5 min and 0.1 ml of the supernatant is analyzed for radioactivity.

## Cc1nc(CNC2CCN(CC3(c4ccc(Cl)cc4)CCC3)CC2COc2ccc(C(F)(F)F)cc2)c(N)[nH]1 (centres unmarked)
DAT (SLC6A3)
  IC50: 75 nM
5-HT-2A/2C receptors
  IC50: 25 to 75 nM
